Reference: PMC10967427, “Polylactic Glycolic Acid-Mediated Delivery of Plectasin Derivative NZ2114 in Staphylococcus epidermidis Biofilms” (Antibiotics, 2024)

Experiments:
[1] = Serum stability by RP-HPLC; format: in vitro ADME, mouse; conditions: 37 °C, RP-HPLC UV 280 nm, mean, n = 3
Procedure: Quantification was performed using reversed-phase high performance liquid chromatography (RP-HPLC) (Agilent 1260 Infinity, Santa Clara, CA, USA) with UV absorption detector composition. Stationary phase: Boston Green ODs-AQ (250 mm × 4.6 mm, 5 μm, 120 Å), mobile phase: 0.1% TFA acetonitrile solution; B: 0.1% TFA aqueous solution. The gradient elution conditions were as follows: 0–16 min, 20–45% of mobile phase A; flow rate of 1.0 mL/min; detection wavelength: 280 nm; injection volume: 50 μL. […] The drug concentration in the samples was calculated.
To assess the stability of NZ2114-NPs under physiological conditions, nanoparticles obtained by freeze-drying were resuspended in 1.5 mL of mouse serum at final concentrations of 12.5%, 25% and 50%, incubated at 37 °C for 0, 1, 2, and 4 h and quantified by RP-HPLC [53, 55].

[2] = system: S. epidermidis G4 biofilm; assay: Effect on bacteria in established biofilms, colony counting; format: cell-based, Staphylococcus epidermidis
Procedure: The effect of NZ2114 nanoparticles on the bacteria in the biofilm was determined according to Yang’s method. Briefly, S. epidermidis G4 (1 × 10^8 CFU/mL) was incubated at 37 °C for 24 h, the supernatant was removed and washed with PBS, and different concentrations of NZ2114 or NZ2114-NPs were added and incubated for 12 h, and then colonies were counted.

[3] = system: S. epidermidis; assay: MIC, broth microdilution, range over the tested strains; format: cell-based, Staphylococcus epidermidis; conditions: range over the four strains of Table 3
Procedure: (§1) The MIC values of NZ2114 nanoparticles were assessed using the broth microdilution method. Briefly, S. epidermidis in the logarithmic growth phase (1 × 10^5 CFU/mL) was incubated with different concentrations of samples for 16 to 20 h at 37 °C.

[4] = system: Staphylococcus epidermidis ATCC 35984; assay: MIC and MBC, broth microdilution; format: cell-based
Procedure: as §1

[5] = system: HaCaT cells; assay: Cytotoxicity by CCK-8; format: cell-based; conditions: 256 μg/mL, 12 h, CCK-8, absorbance 450 nm; mean, n = 3
Procedure: The cytotoxicity of HaCaT was determined using CCK-8. The method was performed as follows. (1) Cell culture: HaCaT cells at a density of 2.5 × 10^5 cells/mL were inoculated into 96-well cell culture plates and incubated for 24 h (37 °C, 5% CO2, saturated humidity conditions); (2) drug incubation: after removing the medium, an equal volume of NZ2114 nanoparticles was added and incubated for 12 h; (3) CCK-8 incubation: the supernatant was removed, CCK-8 (1/10 dilution) was added and incubated for 2 h, and the absorbance value at 450 nm was detected by a Microplate Reader; (4) cell survival rate was calculated according to Equation (4). (4) Cell survival rate %=ANP/APBS×100%

[6] = system: mouse erythrocytes; assay: Hemolysis analysis; format: cell-based; conditions: 128 μg/mL, 8% mouse erythrocytes in 0.9% NaCl, 37 °C, 1 h; mean, n = 3
Procedure: Mouse blood erythrocytes were used to assess the hemolysis of NZ2114 nanoparticles. Mouse erythrocytes were diluted to 8% with 0.9% NaCl, and then an equal volume of different concentrations of nanoparticles was added and mixed, and the samples were incubated at 37 °C for 1 h. After incubation, samples were centrifuged at 1500 rpm for 5 min at 4 °C, and the supernatant was collected and transferred to a 96-well plate for determination. Then, 0.9% NaCl solution and 0.1% tritone X-100 were used as the negative control (A0) and positive control (A100), respectively. Hemolysis was calculated according to Equation (3). (3) Hemolysis %=ANP− A0/A100− A0×100%

[7] = system: trypsin; assay: Enzymatic resistance, inhibition zone assay after trypsin; format: in vitro ADME; conditions: 2 h, 37 °C, zone inhibition assay against S. epidermidis G4, mean, n = 3
Procedure: (§2) The enzymatic stability of NZ2114 nanoparticles was determined by inhibition zone assay. Free or encapsulated NZ2114 was incubated with trypsin or pepsin for 2 h at 37 °C to determine protease stability. Untreated peptide and buffer alone were used as positive and negative controls, respectively. All assays were performed in triplicate.

[8] = system: pepsin; assay: Enzymatic resistance, inhibition zone assay after pepsin; format: in vitro ADME; conditions: 2 h, 37 °C, zone inhibition assay against S. epidermidis G4, mean, n = 3
Procedure: as §2

[9] = system: S. epidermidis G4 biofilm persister; assay: Effect on biofilm persisters, colony counting; format: cell-based, Staphylococcus epidermidis; conditions: 16× MIC, 24 h, after vancomycin (100× MIC) 24 h
Procedure: The antibacterial effect of NZ2114 nanoparticles on the persistent bacteria in the biofilm was determined according to the previous study.

[10] = system: S. epidermidis G11; assay: MIC and MBC, broth microdilution; format: cell-based, Staphylococcus epidermidis
Procedure: as §1

[11] = system: S. epidermidis ATCC 12228; assay: MIC and MBC, broth microdilution; format: cell-based, Staphylococcus epidermidis
Procedure: as §1

[12] = system: S. epidermidis G4; assay: MIC and MBC, broth microdilution; format: cell-based, Staphylococcus epidermidis
Procedure: as §1

[13] = system: S. epidermidis G4 biofilms; assay: Observation of biofilms by confocal laser scanning microscopy; format: cell-based, Staphylococcus epidermidis; conditions: 16× MIC; untreated biofilm thickness 12.6 µm
Procedure: The effect of NZ2114 on the biofilm and internal bacteria was observed according to the previous study. After NZ2114-NP treatment, samples were incubated with PI and SYTO9 (LIVE/DEAD BacLight Bacterial Viability Kit, ThermoFisher, Shanghai, China) for 15 min and observed by CLSM (Zeiss LSM880, Carl Zeiss, Oberkochen, Germany).

SMILES: CC[C@H](C)[C@@H]1NC(=O)[C@H](CO)NC(=O)[C@H](CCCCN)NC(=O)[C@@H]2CSSC[C@@H](C(=O)N[C@@H](Cc3ccc(O)cc3)C(=O)O)NC(=O)[C@H](CCCCN)NC(=O)[C@@H]3CSSC[C@H](NC(=O)[C@H](CCCNC(=N)N)NC(=O)[C@H](CC(C)C)NC(=O)[C@H](CC(=O)O)NC(=O)[C@H](CC(=O)O)NC(=O)[C@H](CCC(=O)O)NC(=O)[C@H](CC(N)=O)NC(=O)[C@H](Cc4c[nH]c5ccccc45)NC(=O)[C@@H]4CCCN4C(=O)CNC(=O)[C@H](CC(N)=O)NC(=O)[C@@H](NC(=O)CNC(=O)[C@H](Cc4ccccc4)NC(=O)CN)CSSC[C@H](NC(=O)[C@H](Cc4ccc(O)cc4)NC(=O)CNC(=O)CNC(=O)[C@H](CCCCN)NC(=O)[C@H](Cc4ccc(O)cc4)NC(=O)CNC(=O)[C@H](CCCCN)NC1=O)C(=O)N[C@@H](C)C(=O)N[C@@H](CCCCN)C(=O)NCC(=O)NCC(=O)N[C@@H](Cc1ccccc1)C(=O)N[C@@H](C(C)C)C(=O)N3)C(=O)N[C@@H](Cc1c[nH]cn1)C(=O)N[C@@H](CC(N)=O)C(=O)N[C@@H](Cc1c[nH]cn1)C(=O)N2 [NZ2114]
- Peptide retention in 12.5% serum, 1 h ([1]; 12.5% mouse serum, 1 h): 97.64%
- Peptide retention in 12.5% serum, 4 h ([1]; 12.5% mouse serum, 4 h): 84.34%
- Peptide retention in 25% serum, 1 h ([1]; 25% mouse serum, 1 h): 96.85%
- Peptide retention in 25% serum, 4 h ([1]; 25% mouse serum, 4 h): 65.69%
- Peptide retention in 50% serum, 1 h ([1]; 50% mouse serum, 1 h): 90.59%
- Peptide retention in 50% serum, 4 h ([1]; 50% mouse serum, 4 h): 59.83%
- Decrease of colony number of bacteria in biofilm ([2]; S. epidermidis G4 24 h biofilm, 1-128× MIC, 12 h treatment, colony counting, n = 3): 0.578 to 6.27 lg
- Bactericidal rate against S. epidermidis G4 in mature biofilm ([2]; range over the tested concentrations): 6–65%
- MIC against S. epidermidis [3]: 2 to 8 µg/mL
- MIC ([4]; Staphylococcus epidermidis ATCC 35984, 1 × 10^5 CFU/mL, 16 to 20 h, 37 °C): 8 µg/mL (≈ 1.81 µM)
- MBC ([4]; Staphylococcus epidermidis ATCC 35984, lowest concentration killing 99% of the bacteria): 16 µg/mL (≈ 3.63 µM)
- Survival rate of HaCaT cells [5]: 80.78%
- Hemolysis rate [6]: 0.67%
- Retained antimicrobial activity after trypsin [7]: 18%
- Retained antimicrobial activity after pepsin [8]: 93%
- Number of persistent bacteria after treatment [9]: 1.04 × 10^4 CFU/mL
- MIC ([10]; S. epidermidis G11, 1 × 10^5 CFU/mL, 16 to 20 h, 37 °C): 4 µg/mL (≈ 0.907 µM)
- MBC ([10]; S. epidermidis G11, lowest concentration killing 99% of the bacteria): 32 µg/mL (≈ 7.25 µM)
- MIC ([11]; S. epidermidis ATCC 12228, 1 × 10^5 CFU/mL, 16 to 20 h, 37 °C): 2 µg/mL (≈ 0.453 µM)
- MBC ([11]; S. epidermidis ATCC 12228, lowest concentration killing 99% of the bacteria): 4 µg/mL (≈ 0.907 µM)
- MIC ([12]; S. epidermidis G4, 1 × 10^5 CFU/mL, 16 to 20 h, 37 °C): 2 µg/mL (≈ 0.453 µM)
- MBC ([12]; S. epidermidis G4, lowest concentration killing 99% of the bacteria): 16 µg/mL (≈ 3.63 µM)
- Biofilm by CLSM (SYTO-9 / PI) [13]: flocculent biofilm almost disappeared

Converted amounts (≈) assume the structure as drawn.
